Assay results reported in PubChem BioAssay AID924 (National Center for Advancing Translational Sciences (NCATS), 2007).
The entries are a selection whose mix differs from that of the whole data set. Results filed as inconclusive are left out. The source made the active and inactive calls. Calls follow the shape of the dose curve; as a rule, active = well fitted cell-killing curve with a large enough effect; inconclusive = small, poorly fitted or top-dose-only effect; inactive = no such curve, though single readings can be large or run the other way.

Assay: qHTS Screen for Compounds that Selectively Target Cancer Cells with p53 Mutations: Cytotoxicity of p53ts Cells at the Permissive Temperature;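 also: 0% = DMSO and -100% = full killing by reference compound; nearly all actives have a fitted effect of over 55% in size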
Conditions: H1299-p53A138V at 32C, ATP luminescence viability, 24 h; at 1.84 µM (top of the series)

Q: With `O=[N+]([O-])C(Cl)(Cl)Cl` as the molecule, how does the activity change, negative = cytotoxicity read?
A: inactive: -3.6%
